This assay has as its target T1, Oxytocin receptor (Homo sapiens) (UniProt P30559).
T1 sequence (whole entry): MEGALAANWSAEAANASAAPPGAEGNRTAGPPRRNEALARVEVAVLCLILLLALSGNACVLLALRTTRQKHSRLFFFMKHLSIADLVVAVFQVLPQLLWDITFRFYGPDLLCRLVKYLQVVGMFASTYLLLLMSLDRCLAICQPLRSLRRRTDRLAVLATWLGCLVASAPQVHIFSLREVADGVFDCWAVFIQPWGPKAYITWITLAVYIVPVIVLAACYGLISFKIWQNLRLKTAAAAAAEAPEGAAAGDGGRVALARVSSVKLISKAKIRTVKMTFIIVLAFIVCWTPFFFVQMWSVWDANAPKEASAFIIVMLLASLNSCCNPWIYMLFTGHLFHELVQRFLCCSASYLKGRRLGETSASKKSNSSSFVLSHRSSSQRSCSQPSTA
Nature of the assay: Agonist activity at recombinant human Gi/Go-coupled OTR expressed in CHOK1 cells assessed as induction of beta-arrestin recruitment measured after 90 mins in presence of 10% FBS by pathhunter assay relative to oxytocin. It is filed as cell-based. A general note: Arrestin recruitment assays detect the binding of arrestin to an activated receptor.

`CC[C@H](C)[C@@H]1NC(=O)[C@H](Cc2ccc(OC)cc2)NC(=O)CCCSC[C@@H](C(=O)N2CCC[C@H]2C(=O)N[C@@H](CC(C)C)C(=O)NCC(N)=O)NC(=O)[C@H](CC(N)=O)NC(=O)[C@H](CCC(N)=O)NC1=O` [CARBETOCIN]: the %max turned out to be 37%.

The values above are taken from ChEMBL document CHEMBL4321872, “Engineering a Potent, Long-Acting, and Periphery-Restricted Oxytocin Receptor Agonist with Anorexigenic and Body Weight Reducing Effects” (J Med Chem, 2020).
